Among the data in PubChem BioAssay AID463218 (Sanford-Burnham Center for Chemical Genomics, 2010) are inhibition values, retold here.

The entries are a selection whose mix differs from that of the whole data set. Calls of active or inactive are those of the source.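 How the source made its calls: active means inhibition above about 39% in either of two replicate wells at 20 µM (limit read from the data); inactive means the rest.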

The test can be described thus: tim23-1 mutant yeast growth inhibitors, confirmation, luminescence, single concentration (AID 463218).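 Further: temperature-sensitive tim23-1 mutant grown at 25 °C; 0% = DMSO wells with yeast and 100% = medium wells without yeast.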 The note with it: S. cerevisiae tim23-1 growth, BacTiter-Glo luminescence, 24 h; at 20 µM; stronger effect = higher value.
Take `O=[N+]([O-])c1cc([N+](=O)[O-])c(CCNc2ccccc2)c([N+](=O)[O-])c1`: the inhibition is inactive: 3.05%. Then `C[N+]1=C2C=CC=CC=C2SC12C([N+](=O)[O-])=CC([N+](=O)[O-])=C[C-]2[N+](=O)[O-]` (stereo not drawn), with active: 76.3%. Then `Cc1ccc(NCCc2c([N+](=O)[O-])cc([N+](=O)[O-])cc2[N+](=O)[O-])cc1`, with inactive: 27.6%.
